Drawing on US20250268876A1, “TREATMENT OF HIDRADENITIS SUPPURATIVA WITH ORISMILAST” (UNION THERAPEUTICS A/S, priority 2021, published 2025), this text covers IC50 for one compound.

By UniProt entry, the sequences of proteins in these tests, tags left out. Residues count along the entry.
UniProt Q08493, 107-712: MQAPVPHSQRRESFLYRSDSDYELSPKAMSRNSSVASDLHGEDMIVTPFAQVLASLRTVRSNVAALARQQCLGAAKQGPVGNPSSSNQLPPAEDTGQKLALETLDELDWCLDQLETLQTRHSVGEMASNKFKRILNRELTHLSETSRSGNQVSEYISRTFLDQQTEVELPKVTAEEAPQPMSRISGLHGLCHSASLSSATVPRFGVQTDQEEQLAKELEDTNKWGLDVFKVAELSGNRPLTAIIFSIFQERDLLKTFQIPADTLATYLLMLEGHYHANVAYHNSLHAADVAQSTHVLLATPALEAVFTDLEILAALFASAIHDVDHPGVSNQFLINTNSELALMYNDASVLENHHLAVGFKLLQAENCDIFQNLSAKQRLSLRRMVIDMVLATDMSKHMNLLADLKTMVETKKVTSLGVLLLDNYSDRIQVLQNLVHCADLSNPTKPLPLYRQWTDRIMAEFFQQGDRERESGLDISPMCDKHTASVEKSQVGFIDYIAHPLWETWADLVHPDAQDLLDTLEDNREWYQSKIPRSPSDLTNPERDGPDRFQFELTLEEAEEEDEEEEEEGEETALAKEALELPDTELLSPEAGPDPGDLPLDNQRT
UniProt P27815, 1-647 isoform P27815-4: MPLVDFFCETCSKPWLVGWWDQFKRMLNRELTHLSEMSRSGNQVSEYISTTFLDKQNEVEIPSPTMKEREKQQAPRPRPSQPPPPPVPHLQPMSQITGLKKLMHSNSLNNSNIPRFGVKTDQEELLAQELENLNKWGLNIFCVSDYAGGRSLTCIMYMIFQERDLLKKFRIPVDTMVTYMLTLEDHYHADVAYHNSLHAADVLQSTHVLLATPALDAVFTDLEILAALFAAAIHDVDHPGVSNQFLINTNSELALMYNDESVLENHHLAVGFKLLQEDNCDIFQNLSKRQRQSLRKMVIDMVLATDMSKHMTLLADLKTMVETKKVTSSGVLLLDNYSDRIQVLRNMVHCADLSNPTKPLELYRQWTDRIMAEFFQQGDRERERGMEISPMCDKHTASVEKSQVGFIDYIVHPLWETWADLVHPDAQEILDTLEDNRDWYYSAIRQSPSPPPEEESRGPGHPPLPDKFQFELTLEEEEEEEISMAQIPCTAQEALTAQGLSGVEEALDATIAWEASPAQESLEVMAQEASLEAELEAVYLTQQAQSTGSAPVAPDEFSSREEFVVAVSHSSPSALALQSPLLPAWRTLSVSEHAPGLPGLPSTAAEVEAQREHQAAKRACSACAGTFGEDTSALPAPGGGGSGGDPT
UniProt P27815, 1-825 isoform P27815-6: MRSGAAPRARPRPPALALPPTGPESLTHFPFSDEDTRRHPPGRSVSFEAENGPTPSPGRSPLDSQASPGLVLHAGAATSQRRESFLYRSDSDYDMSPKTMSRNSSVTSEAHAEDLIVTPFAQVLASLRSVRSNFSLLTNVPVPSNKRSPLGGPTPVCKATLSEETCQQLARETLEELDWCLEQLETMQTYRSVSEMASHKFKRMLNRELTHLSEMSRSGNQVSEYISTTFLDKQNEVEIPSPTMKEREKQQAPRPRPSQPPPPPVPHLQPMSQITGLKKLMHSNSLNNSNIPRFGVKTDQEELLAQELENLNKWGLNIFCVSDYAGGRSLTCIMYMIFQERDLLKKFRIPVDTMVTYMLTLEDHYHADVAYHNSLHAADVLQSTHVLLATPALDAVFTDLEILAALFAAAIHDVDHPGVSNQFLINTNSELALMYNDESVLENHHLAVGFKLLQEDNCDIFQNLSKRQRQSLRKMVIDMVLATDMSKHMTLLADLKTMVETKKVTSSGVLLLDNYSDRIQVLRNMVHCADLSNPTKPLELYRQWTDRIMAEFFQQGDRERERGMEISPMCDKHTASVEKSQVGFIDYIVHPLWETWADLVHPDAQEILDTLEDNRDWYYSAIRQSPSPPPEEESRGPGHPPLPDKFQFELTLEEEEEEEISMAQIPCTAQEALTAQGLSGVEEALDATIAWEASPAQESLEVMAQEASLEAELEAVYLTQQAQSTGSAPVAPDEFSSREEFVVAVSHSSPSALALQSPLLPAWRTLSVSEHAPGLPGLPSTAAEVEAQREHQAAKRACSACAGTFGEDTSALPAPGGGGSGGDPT

Experiment [1] addresses PDE4C2 (Homo sapiens, UniProt Q08493). The experiment is classed as biochemical. On the procedure:
Enzyme Preparations: Partially purified human recombinant phosphodiesterases (PDEs) were obtained by cloning cDNA and expressing in S. frugiperda insect cells using a baculovirus expression system. Cells are harvested from culture by centrifuging at 400×g for 5 minutes. Cell pellet is resuspended in 20 ml of RIPA Buffer (150 mM NaCl, 10 mM Tris, 0.1% NP-40, pH8.3), 4 ml/200 ml of culture, plus protease inhibitors (100 μl/10 ml) and incubated on ice for 10-20 minutes then spun at 3500×g for 10 minutes at 4° C. Supernatant is kept and the pellet thrown away.
Tritium-labelled cyclic AMP is hydrolysed to 5′-AMP o by PDE. The 5′-AMP is then further hydrolysed to adenosine by nucleotidase in snake venom. An anion-exchange resin binds all charged nucleotides and leaves [^3H]adenosine as the only labelled compound to be counted by liquid scintillation.
50 μl of diluted PDE enzyme was incubated with 50 μl of [^3H]-cAMP (specific activity 25 Ci/mmol) and 11 μl of 50% DMSO (or compound dilution) for 20 minutes at 30° C. […] 50 μl of supernatant was removed and added to 200 μl of MicroScint-20 in white plates (Greiner 96well Optiplate) and shaken for 30 minutes before reading on Perkin Elmer TopCount Scintillation Counter. IC50 values were calculated using GraphPad Prism software (version 8).

Experiment [2] addresses PDE4A4 (Homo sapiens, UniProt P27815). Description: biochemical.
The target in experiment [3] is PDE4A1 (Homo sapiens, UniProt P27815). Description: biochemical.
In experiment [4] the target is PDE4A10 (Homo sapiens, UniProt P27815). In words: biochemical.

As for `CCOc1cc([C@@H](CS(C)(=O)=O)N2C(=O)c3cccc(NC(C)=O)c3C2=O)ccc1OC` [Apremilast], the IC50 was 0.244 µM in experiment [1], 0.042 µM in experiment [2], 0.078 µM in experiment [3] and 0.14 µM in experiment [4].

The term IC50 denotes the concentration at which inhibition is half-maximal. A high value points to a need for much substance.
